# Biological target: T1, Trifunctional purine biosynthetic protein adenosine-3 (Mus musculus, UniProt Q64737)
# T1 sequence (Q64737 whole entry): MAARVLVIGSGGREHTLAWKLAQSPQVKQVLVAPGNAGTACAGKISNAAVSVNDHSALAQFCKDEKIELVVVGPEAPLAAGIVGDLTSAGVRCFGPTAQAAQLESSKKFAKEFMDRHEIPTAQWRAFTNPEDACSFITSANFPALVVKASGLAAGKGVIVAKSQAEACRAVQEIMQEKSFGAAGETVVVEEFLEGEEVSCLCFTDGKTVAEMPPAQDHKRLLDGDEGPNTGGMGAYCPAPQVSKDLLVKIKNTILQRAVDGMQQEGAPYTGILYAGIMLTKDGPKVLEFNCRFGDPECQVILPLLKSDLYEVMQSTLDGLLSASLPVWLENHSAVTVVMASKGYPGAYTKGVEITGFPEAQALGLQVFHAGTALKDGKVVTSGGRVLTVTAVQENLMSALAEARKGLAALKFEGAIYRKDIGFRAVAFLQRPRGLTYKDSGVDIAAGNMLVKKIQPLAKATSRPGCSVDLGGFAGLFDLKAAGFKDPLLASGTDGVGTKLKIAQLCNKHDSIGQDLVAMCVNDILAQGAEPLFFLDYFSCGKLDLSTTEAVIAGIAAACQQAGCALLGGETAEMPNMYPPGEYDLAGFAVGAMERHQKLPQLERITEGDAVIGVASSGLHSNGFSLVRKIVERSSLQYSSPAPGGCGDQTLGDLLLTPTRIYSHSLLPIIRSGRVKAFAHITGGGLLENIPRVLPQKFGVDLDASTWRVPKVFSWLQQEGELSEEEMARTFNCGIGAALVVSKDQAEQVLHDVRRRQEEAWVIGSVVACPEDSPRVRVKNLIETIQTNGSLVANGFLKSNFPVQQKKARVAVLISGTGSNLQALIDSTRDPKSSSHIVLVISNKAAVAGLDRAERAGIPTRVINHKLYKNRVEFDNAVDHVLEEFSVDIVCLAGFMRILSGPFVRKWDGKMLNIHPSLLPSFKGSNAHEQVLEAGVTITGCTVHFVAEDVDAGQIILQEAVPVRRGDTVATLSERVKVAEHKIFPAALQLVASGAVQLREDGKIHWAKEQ
# Assay: Inhibition of GAR transformylase from mammalian L1210 cells
# Type: cell-based
smiles,measurement,value
CN(Cc1cnc2nc(N)nc(N)c2n1)c1ccc(C(=O)N[C@@H](CCC(=O)O)C(=O)O)cc1 [METHOTREXATE],IC50,> 20 µM

# — ChEMBL document CHEMBL1124008, “Synthesis and antifolate activity of 5-methyl-5,10-dideaza analogues of aminopterin and folic acid and an alternative synthesis of 5,10-dideazatetrahydrofolic acid, a potent inhibitor of glycinamide ribonucleotide formyltransferase” (J Med Chem, 1988)
